In patent publication US20090047269A1, “METABOLOMIC CANCER TARGETS” (The Regents of the University of Michigan, priority 2007, published 2009):

What was measured:
Format in all cases: cell-based
[1] = tested on: immortalized benign RWPE prostate cells; assay: Modified Boyden chamber matrigel invasion assay, RWPE cells; settings: 50 μg/ml
[2] = tested on: primary benign prostate epithelial cells PrEC; assay: Modified Boyden chamber matrigel invasion assay, PrEC cells; settings: 50 μg/ml
[3] = tested on: EGFR; assay: Immunoblot analysis of EGFR phosphorylation and total EGFR; settings: 50 mg/ml; RWPE cells

## C225: antibody-mediated inhibition of EGFR activity
[1]
  effect on sarcosine induced invasion: completely blocked
[2]
  effect on sarcosine induced invasion: completely blocked
[3]
  EGFR phosphorylation, immunoblot: inhibition of EGFR phosphorylation
